# An excerpt weighted towards active compounds, which were near 0.67% of everything screened.
# gsp antagonist: antagonizes gsp, the McCune-Albright syndrome mutation. Potency, µM (titrated, usually from 76.9 µM), usual class: inhibitors. gsp-mutant cells, cAMP HTRF, 30 min. actives 0.4% (n = 340,000); calls by dose curve; cell line not stated here;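 also: intracellular cAMP measured with PDE inhibitor Ro 20-1724 present during compound exposure; nearly all actives have a fitted effect of over 65% in size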
#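 HTRF cAMP read-out (cAMP-d2 plus anti-cAMP antibody-K in lysis buffer, 30 min RT). Before lysis, cells are exposed to compounds with […] for 30 min at 37C in DPBS containing Ca/Mg, BSA and Tween 20.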
# Rango release inh: inhibition of RanGTP-driven Rango-importin beta dissociation; Potency, µM (titrated, usually from 46.1 µM); O95149+P62826; Biochemical FRET Rango-importin beta, RanGTP-induced dissociation; actives 0.071% (n = 340,000); also: nearly all actives have a fitted effect of over 45% in size
#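 Compounds sat 5 min at room temperature with 0.1 uM Rango biosensor plus 0.25 uM importin beta, then FRET pre-read. RanGTP-RCC1 (0.6 uM Ran, 2mM GTP, 0.2 uM RCC1) added for 45 min, and the CFP/YFP post-read measured blocked complex dissociation.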
# Rango-impB inh: inhibitors of Rango-importin beta complex formation; Q14974; AID 540263; Rango CFP/YFP FRET sensor + importin beta, 45 min; Potency, µM (top dose mostly 92.2 µM); actives 0.031% (n = 340,000); also: nearly all actives have a fitted effect of over 15% in size
#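 Inhibition scored from the CFP 486 nm/YFP 530 nm FRET ratio 45 min after adding 0.125 microM importin beta to 50 nM Rango biosensor preincubated 5 min with compound (room temperature, PBS with DTT, Tween-20, BSA). No-importin wells as positive control.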
# S-ASM inh: blocks human secretory acid sphingomyelinase; AID 504937; actives 0.006% (n = 340,000); placental ASM, HMU-PC fluorogenic substrate, 60 min; P17405; Potency, µM (titrated, usually from 57.5 µM), usual class: inhibitors; active = well fitted inhibition curve with a large enough effect; inconclusive = small, poorly fitted or top-dose-only effect; inactive = no such curve, though single readings can be large or run the other way
#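 Human placenta-derived ASM preincubated with compound 10 min at room temperature, then reacted with 9 uM (final) fluorogenic HMU-PC substrate for 60 min at 37 C. Stop solution raises pH to 10; fluorescence read at Ex 386/Em 447 nm.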
# gsp ag: agonists of gsp mutant (McCune-Albright syndrome) | gsp mutant cells, cAMP HTRF, 30 min | Potency, µM (series often up to 76.9 µM), actives largely listed as activators | actives 0.13% (n = 340,000); active = well fitted activation curve with a large enough effect; inconclusive = small, poorly fitted or top-dose-only effect, or another doubt; inactive = no such curve, though single readings can be large or run the other way; cell line not stated here;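 also: phosphodiesterase inhibitor Ro 20-1724 added with compounds to block cAMP breakdown; nearly all actives have a fitted effect of over 60% in size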
#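 Cells in DMEM/10% FBS with G418 were pretreated with compounds in DMSO plus […] (300 uM stock) for 30 min at 37C. cAMP was measured by HTRF (cAMP-d2 plus anti-cAMP antibody-K) after 30 min at room temperature.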
# Numbers stand for hits; n = inactive; u = inconclusive; x = not tested or not shown; [ ] = dose if it differs, or a comment. Unless noted, calls follow the shape of the full dose curve.
SMILES,gsp antagonist,Rango release inh,Rango-impB inh,S-ASM inh,gsp ag
O=C1CN(c2nc(-c3cccnc3)nc3sc4c(c23)CCCC4)CCN1,n,n,n,n,25.1µM
CCCCn1c(N)c(S(=O)(=O)c2ccc(C)cc2)c2nc3ccccc3nc21,u,u,u,n,n
Cc1ccc(S(=O)(=O)c2c(N)n(-c3ccccc3)c3nc4ccccc4nc23)cc1,u,14.6µM,u,n,n[15.4 µM]
CC1=CC(c2ccc(Cl)cc2)n2nc(NC(=O)c3ccccc3)nc2N1 (stereo not drawn),n,n,u,n,n
CC(=O)Nc1nc2n(n1)C(c1ccc(Cl)cc1)C=C(C)N2 (stereo not drawn),n,13µM,u,n,n
CCCn1nc([N+](=O)[O-])c(C(C#N)c2nc3ccccc3s2)c(Cl)c1=O (stereo not drawn),31.6µM,n,n,n,n
O=C(NCc1ccccc1CN1CCCC1)c1cc2cc(Cl)ccc2o1,n,n,n,n,n
O=C(c1ccco1)N1CCN(Cc2cc(=O)c(OCc3ccccc3)co2)CC1,n,n,n,x,20µM
O=C(c1ccccc1)c1ccc(O)cc1O,n,n,58µM,n,n
O=C(c1ccc(O)cc1)c1ccc(O)cc1O,n,n,n,n,n[15.4 µM]
Cc1ccc(C(=O)N2CCN(c3ccc(F)cc3)CC2)cc1S(=O)(=O)N1CCCCC1,n,n,n,n,n
Cc1ccc(C(=O)N2CCN(c3ccccc3)CC2)cc1S(=O)(=O)N1CCCC1,31.6µM,n,n,n,n
Cc1oc2cc3oc(=O)c(CC(=O)N[C@H](C(=O)N[C@@H](C(=O)O)c4ccccc4)C(C)C)c(C)c3cc2c1C,50.1µM,n,n,n,x
CCc1ccc(CNC(=O)CCCC(=O)n2nc(C)c3ccccc32)cc1,n,n,n,n,n
CC1(C)Cc2c(sc3nc(-c4cccs4)n(N)c(=O)c23)CO1,31.6µM,n,n,n,n
CC1(C)Cc2c(sc3nc(-c4ccccc4)n(N)c(=O)c23)CO1,n,n,n,n,n
COCC(=O)NC1CCN(C(=O)Nc2ccc(Br)cc2)CC1,n,n,n,n,n
CC(=O)c1ccc(OCC(=O)OCC(=O)c2ccc(S(=O)(=O)N3CCCCC3)cc2)cc1,x,x,x,x,n
CCc1c(-c2ccccc2)nc2sc3c(c2c1N)CCCC3,35.5µM,n,n,n,n[15.4 µM]
CCN(CC)S(=O)(=O)c1cccc(C(=O)Nc2nnc(C)s2)c1,n,n,n,n,n[15.4 µM]
CCN(CC)S(=O)(=O)c1cccc(C(=O)Nc2cc(C)on2)c1,50.1µM,n,n,n,n
CC1=NN(c2cccc(C(=O)O)c2)C(=O)/C1=C\C=C/c1ccccc1,28.2µM,n,n,n,n[15.4 µM]
Cc1ccc2c(=O)n3c(nc2c1)C(C)NC(=O)c1cccnc1-3 (stereo not drawn),x,x,x,x,31.6µM
Cn1c([N+](=O)[O-])cnc1N1CCN(c2nncs2)C1=O,n,n,n,n,10µM
CC1(C)CC(=O)C(CC(=O)Nc2cc(C(F)(F)F)ccc2Cl)C(=O)C1,n,u,n,n,n[15.4 µM]
SMILES,gsp antagonist,Rango release inh,Rango-impB inh,S-ASM inh,gsp ag
Cc1ccc(NC(=O)c2ccc(NCc3ccco3)c([N+](=O)[O-])c2)cc1Cl,n,n,n,n,u
CCCCN1C(=O)c2ccc(C(=O)Nc3cccc(C)c3C)cc2C1=O,n,n,n,n,n
CCCCN1C(=O)c2ccc(C(=O)Nc3ccc(C)c(S(=O)(=O)N(C)C)c3)cc2C1=O,28.2µM,n,n,u,n
CCCCCOC(=O)C1=C(C)N(C)C(=O)NC1c1cc(Br)c(O)c(OC)c1 (stereo not drawn),7.08µM,n,n,n,n
CCCCOC(=O)C1=C(C)N(C)C(=O)NC1c1cc2c(cc1Br)OCO2 (stereo not drawn),x,x,x,x,n
COC(=O)c1ccccc1NC(=O)C1CCN(C(=O)c2ccc(OC)cc2)CC1,n,n,n,n,n
C[C@H](CO)N1C[C@H](C)[C@@H](CN(C)S(=O)(=O)c2cn(C)cn2)Oc2cc(Br)ccc2S1(=O)=O,x,x,x,x,n
C=CCn1c(SCc2ccccc2C#N)nnc1-c1cc(Br)ccc1O,35.5µM,n,n,n,n
CN(C(=O)C1CCN(S(=O)(=O)c2ccccc2)CC1)c1c(N)n(Cc2ccccc2)c(=O)[nH]c1=O,n,n,n,n,n
Cn1c(=O)c2c(nc(SCCN3CCOCC3)n2C)n(C)c1=O,n,n,n,n,8.91µM
N#CC1(NC(=O)COC(=O)Cn2[nH]c(=O)c3ccccc3c2=O)CCCCC1,n,n,n,n,n[15.4 µM]
S=c1[nH]nc(-c2c[nH]c3ccccc23)o1,n,n,n,n,n
Oc1cc2ccccc2cc1-c1n[nH]c(=S)o1,28.2µM,n,n,n,n
COCCCn1c(C(=O)NCCC2=CCCCC2)cc2c(=O)n3ccccc3nc21,n,n,u,n,7.08µM
N#Cc1ccc(-c2nc3ccc(Br)cn3c2Cc2ccccc2)cc1,x,x,x,x,31.6µM
C/C(=N\NC(=O)CN1CCN(Cc2ccccc2)CC1)c1cccs1,n,n,n,n,n
O=C(Cc1cccc(NC(=O)C2CCCN(C(=O)C3CCCCC3)C2)c1)Nc1cccc(C(=O)N2CCCC2)c1 (stereo not drawn),n,n,n,n,n
O=C(OCC(=O)N1CCCC1)c1ccc(S(=O)(=O)Nc2ccccc2)cc1,11.2µM,n,n,n,n
COc1ccc2c(c1)O/C(=C\c1ccco1)C2=O,n,u,u,n,n[15.4 µM]
Cc1cc(O)c(CN(C)C)c2c1C(=O)/C(=C/c1ccco1)O2,n,25.9µM,u,n,u
O=C1/C(=C/c2ccc(N3CCOCC3)o2)SC(=Nc2ccccc2)N1CCc1c[nH]c2ccccc12,n,u,u,n,n
COCCN1C(=O)/C(=C/c2ccc(Oc3ccc([N+](=O)[O-])cn3)c(OC)c2)SC1=Nc1ccccc1,n,n,n,n,n
COc1cc(/C=C2\SC(=Nc3ccccc3)N(CCc3c[nH]c4ccccc34)C2=O)ccc1OC(C)C(=O)O (stereo not drawn),35.5µM,n,n,n,n[15.4 µM]
COc1ccc(N=C2S/C(=C\c3ccc(OC(C)C(=O)O)c(OC)c3)C(=O)N2CCc2c[nH]c3ccccc23)cc1 (stereo not drawn),35.5µM,n,n,n,n
O=C(O)c1ccc(NNC(=S)Nc2cc(C(F)(F)F)ccc2Cl)cc1,n,n,n,n,n
Cc1cc(-c2ccco2)c(C#N)c2nc3ccccc3n12,n,u,u,n,u
CCN(CC(=O)Nc1c(F)cccc1F)C(=O)CCCN1C(=O)c2cccc3cccc(c23)C1=O,x,x,x,x,12.6µM
Cn1nc(CC(=O)NCc2ccc(C(F)(F)F)cc2)c2ccccc2c1=O,12.6µM,n,n,n,n
COc1cccc(C(=O)Oc2c(Br)cc(Br)cc2/C=N/NC(=O)c2cc(C)[nH]n2)c1,u,18.4µM,u,n,u
Cc1cc(C(=O)N/N=C/c2cccc(OC(=O)c3cccc(Br)c3)c2)n[nH]1,n,n,n,n,n
